Legend:
LC132 receptor [1] = biological target: T1, LC132 receptor (Rattus norvegicus, UniProt P35370); conditions: read-out: inhibitory constant (Ki), inhibition of [125I]Tyr14-orphanin binding; cited from earlier work
LC132 receptor [2] = biological target: T1, LC132 receptor; experiment: cell-based

Chains of the proteins cited; added tags and fusions are not shown. Lines headed by an entry give the natural chain unless they say otherwise; changes in a name come on top.
UniProt P35370: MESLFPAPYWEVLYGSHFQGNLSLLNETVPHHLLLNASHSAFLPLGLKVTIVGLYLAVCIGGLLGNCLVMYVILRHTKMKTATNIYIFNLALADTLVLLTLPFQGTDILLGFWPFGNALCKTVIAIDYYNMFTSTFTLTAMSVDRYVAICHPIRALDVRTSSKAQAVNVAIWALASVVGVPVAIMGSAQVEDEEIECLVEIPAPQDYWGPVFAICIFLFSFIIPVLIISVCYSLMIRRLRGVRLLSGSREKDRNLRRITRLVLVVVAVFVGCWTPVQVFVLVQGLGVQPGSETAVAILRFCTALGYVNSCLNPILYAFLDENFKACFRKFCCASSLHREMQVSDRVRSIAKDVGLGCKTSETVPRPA

**Q.** What does the source list for CC(C)C[C@H](NC(=O)[C@H](CCCCN)NC(=O)[C@H](CCCN=C(N)N)NC(=O)[C@H](C)NC(=O)[C@H](CO)NC(=O)[C@H](CCCCN)NC(=O)[C@H](CCCN=C(N)N)NC(=O)[C@H](C)NC(=O)CNC(=O)[C@@H](NC(=O)[C@H](Cc1ccccc1)NC(=O)CNC(=O)CNC(=O)[C@@H](N)Cc1ccccc1)[C@@H](C)O)C(=O)N[C@@H](C)C(=O)N[C@@H](CC(N)=O)C(=O)N[C@@H](CCC(N)=O)C(=O)O [OFQ, F-G-G-F-T-G-A-R-K-S-A-R-K-L-A-N-Q]?
**A.** Ki (LC132 receptor [1]): 0.19 ± 0.02 nM; EC50 (LC132 receptor [2]): 1.05 ± 0.21 nM; Emax at 0.1 µM (LC132 receptor [2]; CHO, read-out: maximal effect, inhibition of forskolin-stimulated cAMP accumulation): ~80%
